EP0942911B1, “BENZOPYRANOPYRROLE AND BENZOPYRANOPYRIDINE ALPHA-1 ADRENERGIC COMPOUNDS” (Abbott Laboratories, priority 1996, dated 1998)

System: α-1 Adrenoceptors
Test: Functional antagonism in rat aorta (method not described)
Type: cell-based

Structure (SMILES): COc1cc2nc(N3CCN(C(=O)C4COc5ccccc5O4)CC3)nc(N)c2cc1OC (stereo not shown) [Doxazosin, doxazosin, reference compound]
- In Vitro Characterization (pA2) Rat Aorta: 8.97
